Data as given in PMC10054634, “Chemical Constituents of Thesium chinense Turcz and Their In Vitro Antioxidant, Anti-Inflammatory and Cytotoxic Activities” (Molecules, 2023).

Assay: Cytotoxicity in RAW 264.7 cells (CCK-8)
Conditions: mouse

## C[C@]12CC[C@H](O)C[C@@]1(O)CCC1C2CC[C@]2(C)[C@@H](C3=CC(=O)OC3)CC[C@]12O (stereo partly shown) [Compound 4, perlplogemn]
  IC50: > 200 µM
